Only a part is listed here, and it is no random draw. Activity calls are given as the source filed them. Cut-off read from the data, not from the text of the source: active = inhibition above about 30%; inactive = the rest.

By UniProt entry, the sequences of proteins in these tests, tags left out. Where a name states a change or a piece, a line headed by the entry shows the natural chain unless it says otherwise.
UniProt P09936: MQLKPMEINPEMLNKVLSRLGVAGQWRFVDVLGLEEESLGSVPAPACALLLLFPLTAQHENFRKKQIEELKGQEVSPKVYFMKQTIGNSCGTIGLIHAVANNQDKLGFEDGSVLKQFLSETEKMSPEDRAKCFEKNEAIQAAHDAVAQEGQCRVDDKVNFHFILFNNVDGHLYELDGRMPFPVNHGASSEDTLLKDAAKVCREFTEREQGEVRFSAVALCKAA

Eleven compounds from PubChem BioAssay AID1645859 (Buhrlage Lab, Dana-Farber Cancer Institute and Novartis …, 2021) can be followed below.

The experiment addresses Ubiquitin carboxyl-terminal hydrolase isozyme L1 (Homo sapiens) (UniProt P09936). Kind of experiment: blocks human UCHL1 ubiquitin-rhodamine cleavage (AID 1645859). The following applies: purified UCHL1, Ub-rhodamine cleavage fluorescence; at 20 µM; active compounds read high.
Consider `N#Cc1cccc(C(=O)N(Cc2ccco2)C2CCN(CCc3ccc(Cl)cc3)CC2)c1`, for which the inhibition was inactive: -1.77%.
The value for `Cc1[nH]c2c(N(C(=O)Nc3ccccc3)C3CCN(Cc4ccccc4)CC3)cccc2c1C` was inactive: -7.51%; that for `COc1ccc(CCN2CCC(N(Cc3cccnc3)C(=O)c3cccc(C#N)c3)CC2)cc1` was inactive: -8.43%; that for `O=C(c1ccc2c(c1)OCO2)N(Cc1ccco1)C1CCN(CCc2ccccn2)CC1` was inactive: 4.06%.
Take `O=C(COC(=O)C(O)(c1ccccc1)c1ccccc1)NCc1ccc2c(c1)OCO2`: the inhibition is inactive: -1.57%.
The value for `CS(=O)(=O)c1ccc(C(=O)N(Cc2ccco2)C2CCN(CCc3ccccn3)CC2)cc1` was inactive: -3.45%; that for `N#Cc1cccc(C(=O)N(Cc2cccnc2)C2CCN(CCc3ccccn3)CC2)c1` was inactive: -4.28%; that for `CS(=O)(=O)c1ccc(C(=O)N(Cc2cccnc2)C2CCN(CCc3ccc(Cl)cc3)CC2)cc1` was inactive: -23.2%.
To `N#Cc1cccc(C(=O)N(Cc2ccco2)C2CCN(CCc3ccccn3)CC2)c1` belongs inactive: -4.41%; to `CN1C(=O)C2C(NC(=NCc3ccco3)N2CCc2ccccc2)N(C)C1=O` (stereo unspecified), inactive: -0.213%.
To `COc1ccc(CCN2CCC(N(Cc3ccco3)C(=O)c3ccc(S(C)(=O)=O)cc3)CC2)cc1` belongs inactive: -5.48%.

Broadly, the inhibition is the change of the read-out against control, counted positive when it falls.
